Experimental findings from ChEMBL document CHEMBL4052581, “Expanding the Cancer Arsenal with Targeted Therapies: Disarmament of the Antiapoptotic Bcl-2 Proteins by Small Molecules” (J Med Chem, 2017) are described below.

Protein sequences, listed by entry. Tags and fused reporters are not part of them.
UniProt Q07820, whole entry: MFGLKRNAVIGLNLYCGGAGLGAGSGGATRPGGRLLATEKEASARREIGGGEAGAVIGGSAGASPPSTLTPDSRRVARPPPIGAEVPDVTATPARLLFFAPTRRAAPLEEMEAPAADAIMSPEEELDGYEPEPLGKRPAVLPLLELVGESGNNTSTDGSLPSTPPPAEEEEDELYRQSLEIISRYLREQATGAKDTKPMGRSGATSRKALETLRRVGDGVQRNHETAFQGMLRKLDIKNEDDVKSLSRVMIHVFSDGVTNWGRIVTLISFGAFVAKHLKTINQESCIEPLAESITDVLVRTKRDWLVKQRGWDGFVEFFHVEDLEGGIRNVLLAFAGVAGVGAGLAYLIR

Broadly, the Ki is a measure of affinity in units of concentration, obtained from inhibition or displacement. A high value points to lower affinity.

This assay addresses Induced myeloid leukemia cell differentiation protein Mcl-1 (Homo sapiens, UniProt Q07820). Kind of assay: Binding affinity to Mcl-1 (unknown origin).

Take `CN(C)CC[C@H](CSc1ccccc1)Nc1ccc(S(=O)(=O)NC(=O)c2ccc(N3CCN(Cc4ccccc4-c4ccc(Cl)cc4)CC3)cc2)cc1[N+](=O)[O-]` [ABT 737]: the Ki is more than 20 µM.
